## Apparent affinities of Ab-14 variants for a coronavirus HR2 peptide

Data: MIT Lincoln Laboratory AlphaSeq set, Li et al. 2023, doi:10.1038/s41467-023-39022-2, as distributed in FLAb.

Antigen: PDVDLGDISGINAS, a 14-residue peptide of the SARS-CoV-2 spike HR2 region.

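The variants were designed computationally from a first round of random CDR variants and then made and measured. Their group label is 14L_En_Gibbs (En: ensemble of fine-tuned language models; Gibbs: Gibbs sampling). The scFvs were displayed on barcoded MATa yeast, the peptide on MATalpha yeast. Pairs that bind mate more often; barcode pairs of the diploids are counted by sequencing. Scores were corrected for input abundance and mapped to Kd with protein pairs of known affinity run in the same pool. Mating was done six times.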

Ab-14 is the parent antibody, in scFv form: VH, then a (GGGGS)3 linker, then VL. The heavy chain is unchanged in all variants.
VH: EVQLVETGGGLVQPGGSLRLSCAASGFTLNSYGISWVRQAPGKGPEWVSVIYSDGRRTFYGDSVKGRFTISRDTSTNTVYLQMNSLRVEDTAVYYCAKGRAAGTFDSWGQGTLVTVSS
VL: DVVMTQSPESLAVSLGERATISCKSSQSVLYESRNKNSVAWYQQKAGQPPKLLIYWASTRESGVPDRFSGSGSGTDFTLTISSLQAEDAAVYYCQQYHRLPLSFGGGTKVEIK

Variants are written as CDR1, CDR2 and CDR3 of the light chain (limits as in the source). Parent: KSSQSVLYESRNKNSVA, WASTRES, QQYHRLPLS. Values are log10 of the apparent Kd in nM; lower means stronger binding. Replicates are averaged; those with no signal do not enter the mean. An entry "n.d." has no value in the source: the pair was not observed among the diploids in that replicate. This suggests poor binding but is not conclusive. Nonspecific signal, from three strains lacking the peptide, appeared in 4% of pairings of all light chain designs, centred on 2.64 (5% of these signals below 1.59); values are not corrected for it. Also given: how often the same scFv was detected with the empty control strains, with their mean in brackets. The authors' rule: three or more of the six replicates give a measured affinity, fewer mean a poor binder. The parent sequence was in this pool as ten entries: three were never detected, three once, and four in most replicates, with averages from 0.34 to 2.37. A sequence measured in both rounds can read differently, since the two assays cover different ranges.

CDR-L1	CDR-L2	CDR-L3	replicates, log10 nM	mean, log10 nM	control signals
AVSIEHMENTAIWNAIA	DTSLRNH	QQYYHLPLS	n.d. 0.83 1.28 0.92 0.88 0.10	0.80	0 of 18
NIEGVEFESAMHGNSVA	GVDLREA	QQYFRLPLH	0.56 0.48 0.32 0.24 0.01 0.43	0.34	0 of 18
YVSIQAAQDRNQQSSIA	GVDYREK	QQYYHLPLS	0.99 0.79 0.73 1.14 1.12 0.89	0.94	1 of 18 (1.94)
KIELDLTRYNASYSAIA	HETQKAQ	QQYSRLPLV	1.62 1.80 1.85 1.40 1.41 1.68	1.63	3 of 18 (2.99)
SFERGYDGNSLVQNNVA	EGTTLWE	QQYMRLPLA	0.87 0.77 0.37 0.72 0.63 0.66	0.67	0 of 18
QLGDEQVGETLMADNIA	HDAFRAD	QQYFRLPLL	1.59 1.31 2.45 1.84 2.88 1.91	2.00	0 of 18
NLSIQNQPQNMFANNVA	QTESRCE	QQYFMLPLA	0.39 0.21 0.26 -0.08 0.22 0.41	0.24	1 of 18 (3.39)
MVNTNLEHQAQRDNSIA	EADMVAA	QDYDRLPLI	n.d. 2.44 1.83 2.05 2.35 2.59	2.25	3 of 18 (3.22)
HLKTMPGQGPQTYSSIA	HAELRTP	QQYYRLPLM	1.01 1.05 0.50 0.31 0.28 0.74	0.65	1 of 18 (2.59)
KLANYMYQGGLVQANVA	EAKELWE	QQYGHLPLA	1.15 1.00 0.78 0.98 0.78 0.93	0.94	4 of 18 (3.35)
SLELFSLEGDKPVNNVA	DEVVKTS	QQYFRLPLH	1.67 1.47 1.09 0.93 0.97 1.34	1.25	0 of 18
KLDMFIPSQKEWDASIA	GATLRPT	QDYARLPLS	n.d. 3.05 n.d. 4.87 3.14 3.01	3.52	1 of 18 (3.74)
SLHMMPPVGYALNANVA	NASQLFS	QQYFRLPLT	1.64 1.47 1.52 1.08 1.44 0.98	1.36	0 of 18
SLVQKADYMDSERNNIA	NMRLRNE	QQYFHLPLT	0.96 0.93 0.59 0.59 0.41 0.96	0.74	0 of 18
KLDLTNGEEDKKGQNIA	EASTAGD	QSYWRLPLS	1.11 -0.01 0.65 -0.13 1.89 0.47	0.67	0 of 18
RIQDHMAVGEMRHSSIA	EESYRMD	QQYSRLPLA	0.53 0.20 0.37 0.12 0.62 0.31	0.36	1 of 18 (3.67)
NLVGRAVMQYSGRNAIA	NAHARCT	QQYFRLPLT	n.d. n.d. 2.15 2.16 n.d. 1.62	1.98	1 of 18 (1.52)
QLDQAYRVGALWTDSIA	HASMRVQ	QCYNRLPLM	n.d. 2.18 n.d. n.d. 1.12 1.69	1.66	1 of 18 (1.54)
RLLDWAYNLTAKDSNIA	DSDIRGS	QQYSHLPLA	0.67 0.81 0.56 0.77 0.59 1.10	0.75	1 of 18 (1.78)
VLPDNLLMFESQYHSIA	EGVQRME	QQYERLPLT	0.84 0.83 0.66 0.36 0.54 0.80	0.67	4 of 18 (2.63)
RIQMTMLEGRMAWSNIA	DNEESYR	QQYVRLPLY	n.d. n.d. n.d. n.d. n.d. n.d.	n.d.	0 of 18
TLYMGPTEARMDKHNIA	GMSEREE	QQYHLLPLV	1.50 1.26 1.68 1.16 1.37 1.54	1.42	0 of 18
SMAWQQGGYNQQEAAIA	EAATRTQ	QQYFRLPLT	1.04 0.60 0.26 0.38 0.39 0.47	0.52	1 of 18 (2.68)
QIEIHGMDENQMYNHIA	NENIREF	QQYWHLPLS	0.97 0.73 0.64 0.33 1.23 n.d.	0.78	0 of 18
KISKPWELGHPSTNAVA	NADIANA	QQYSRLPLS	-0.37 -0.26 -0.29 -0.61 -0.46 -0.14	-0.35	0 of 18
HISIKLPGNWKMMDSVA	HSELRAE	QQYDRLPLG	0.70 0.54 0.53 0.68 0.68 0.87	0.67	0 of 18
KIDGQRSYDAGRERAIA	DVTIRFR	QQYARLPLV	2.55 n.d. 1.59 1.56 1.56 2.21	1.90	0 of 18
RIDAYPPMQGKNIDSIA	ENAITLH	QQYANLPLS	2.01 n.d. n.d. 2.65 2.58 2.06	2.33	1 of 18 (1.50)
SMQLNQIEGNQQQNSIA	GESEADM	QHYARLPLT	n.d. n.d. n.d. n.d. n.d. n.d.	n.d.	0 of 18
HLSINMPGQHYMYDSVA	HSERRAE	QQYYRLPLG	0.42 0.48 0.59 0.07 0.09 0.19	0.31	0 of 18
HIDQVKYDQKTAQNNIA	SGAERVW	QQYSRLPFS	0.19 0.00 0.08 -0.25 -0.01 0.08	0.02	0 of 18
RITQQMAGFERHAANIA	STAVRLW	QQYARLPFI	0.64 0.40 0.33 0.81 0.44 0.60	0.54	1 of 18 (2.57)
KLDLSMSYSHEGRRAIA	NADALVI	QQYHRLPLI	0.61 0.58 0.49 0.48 0.50 0.69	0.56	1 of 18 (1.83)
RMNKFMSEIGGARNSIA	GADHLAQ	QHYHRLPLS	1.22 0.89 0.96 1.11 0.93 1.19	1.05	1 of 18 (2.65)
AISQMTEPAAQNSNSIA	EEDRVTE	QQYSKLPLT	1.06 1.00 0.61 1.36 0.95 0.93	0.98	0 of 18
KLTHPTDLWLNHVSSIA	DANISVE	QQYYQLPLT	0.82 0.48 0.55 0.70 0.35 0.71	0.60	1 of 18 (3.08)
RVSSMLMAGGGIYNNIA	GTKVLER	QQYMRLPLM	0.16 0.23 0.08 0.20 0.10 0.40	0.20	1 of 18 (2.91)
MLEWLEINGQSVGNSIA	ANVQEQE	QQYFRLPLT	n.d. n.d. n.d. n.d. n.d. n.d.	n.d.	0 of 18
MLSYNLHDMDRNKNNVA	EMNKSTT	QDYHRLPLA	0.21 0.88 0.28 0.24 0.46 0.92	0.50	1 of 18 (2.60)
TISGMVEEIETRQKNIA	EVEFRCM	QQYSRLPLS	n.d. n.d. n.d. n.d. n.d. n.d.	n.d.	0 of 18
QLEWDQLWGANYDYSVA	AQDVISP	QQYHRLPLI	n.d. 2.39 n.d. n.d. n.d. 2.35	2.37	1 of 18 (2.74)

Again, the first 4 entries without any signal:

CDR-L1	CDR-L2	CDR-L3	replicates, log10 nM	mean, log10 nM	control signals
RIQMTMLEGRMAWSNIA	DNEESYR	QQYVRLPLY	n.d. n.d. n.d. n.d. n.d. n.d.	n.d.	0 of 18
SMQLNQIEGNQQQNSIA	GESEADM	QHYARLPLT	n.d. n.d. n.d. n.d. n.d. n.d.	n.d.	0 of 18
MLEWLEINGQSVGNSIA	ANVQEQE	QQYFRLPLT	n.d. n.d. n.d. n.d. n.d. n.d.	n.d.	0 of 18
TISGMVEEIETRQKNIA	EVEFRCM	QQYSRLPLS	n.d. n.d. n.d. n.d. n.d. n.d.	n.d.	0 of 18